Source: US20240043514A1, “NOVEL METHOD FOR PRODUCING ANTIBODIES” (TSINGHUA UNIVERSITY, priority 2017, published 2024)

Assays:
PBMCs [1] = assay: In vitro immunization (IVI) of PBMCs, antigen-specific IgG/IgM production by ELISA; format: cell-based, human; conditions: amplified PBMCs, antigen TrkA, with CD40L, IL2, IL21, CpG ODN, culture 10-14 days
Description: (§1) PBMCs were washed and diluted with PIV culture medium. Cell density was adjusted to 1*10^^7 cells/ml, treateder with 0.25 mM LLME for about 20 min. Discarded supernatant, and re-suspended cell with PIV culture medium. Adjusted cell density to 9*10^^5 cells/ml. Transferred cells suspension into 96 well plate, and added 2 μg/ml antigen, and 10 ng/ml IL2, 50 ng/ml IL21, CD40L, ICOS, synthesized TLR7/8 agonist, or any desired factors or combination thereof respectively. Cultured the tissue for 7 days at 37° C., 5% CO2. Changed half of the medium and added factor cocktail on day 7. Cultured the cells for 7-21 days at 37° C., 5% CO2. Collected the supernatant on day 7, day 14, or day 21 for analysis of antibody production by ELISA, whereas the pellets are used for testing gene expression by PCR or RT-PCR. The collected cells were also tested in ELISpot assay for FACS analysis. […]
After day7 or day14 with addition of cytokines or antibody-enhancing composition and antigens, supernatants were harvested and added to antigen OVA-coated plates. After 2 hr incubation, a HRP-conjugated anti-human IgG or anti-human IgM was added, the amount of antigen-specific antibody was measured using TMB as substrate. […]
An exemplary cytokine, IL1β, was tested. […] After 7 or 14 days, supernatants were harvested, and IgG/IgM antibody production was measured by ELISA assay.

PBMCs [2] = assay: PBMC proliferation, cell density counted by hemocytometer; format: cell-based, human
Description: FIG. 1 illustrates that IL2 stimulates PBMC proliferation. PBMCs were immunized in vitro with the antigen TrkA (2 μg/ml) in the presence of various stimulants as indicated for 14 days. Cell density was counted by Hemocytometer. Note that treatment with IL2 increased cell density by 15 folds. Concentration of the stimulants added: avasmibe, 10 μM/ml; CpG ODN, 2 μg/ml; IL21, 50 ng/ml; 112, 10 ng/ml; IL4, 10 ng/ml; BAFF, 50 ng/ml.
PBMC in vitro (PIV) culture medium: (RPMI1640:DMEM:Ham's F12=1:1:2) supplemented with 10% FBS. Fresh PBMC was harvested from several healthy donors (about 40 ml/time/person). PBMC was separated by density-gradient centrifugation as previously described in human monoclonal antibody book. Cell number was counted with a hemocytometer.
as §1, with “CO2.” for “CO2. Collected the supernatant on day 7, day 14, or day 21 for analysis of antibody production by ELISA, whereas the pellets are used for testing gene expression by PCR or RT-PCR. The collected cells were also tested in ELISpot assay for FACS analysis.”

Substance | antibody level among all the stimulants (PBMCs [1]) | increase of cell density (PBMCs [2]; PBMCs immunized with TrkA 2 μg/ml, 14 days, IL2 10 ng/ml) | promotion of cell proliferation compared with other stimulants (PBMCs [2]; antigen TrkA with various factors, FIG. 1)
ICOSL: Human ICOS Ligand/B7-H2/ICOSLG (Histag) | the highest antibody level among all the stimulants | – | –
IL2: interleukin-2, cytokine; part of 'basic' medium at 10 ng/ml | – | 15 folds | the most potent stimulant that promotes cell proliferation
